Assays:
[1] = test system: melanoma patients
[2] = test system: melanoma patients; details: in vivo
[3] = 10 and 50 ug QS-21 doses with GM2-KLH

## 11^3NeuAc-GgOse3Cer-keyhole limpet hemocyanin (KLH) [GM2-KLH]
[1]; QS-21 dose 0
  median severity by NCI Common Toxicity Criteria: Erythema and Induration: (1)
  median severity by NCI Common Toxicity Criteria: Tenderness and Pain: (1)
[1]; in vivo
  Number of adverse reactions: Erythema and Induration (local): 6 (1)
  Number of adverse reactions: Fever (systemic): 0
  Number of adverse reactions: Headache (systemic): 0
  Number of adverse reactions: Myaligia (systemic): 0
  Number of adverse reactions: Nausea or Vomiting (systemic): 0
  Number of adverse reactions: Tenderness and Pain (local): 6 (1)

## QS-21 [reference compound]
[1]; 200 ug QS-21 with GM2-KLH
  restricted usage of the injected extremity: 5 to 10 days
[1]; 200 ug QS-21 with GM2-KLH, all patients
  diameter of local reactions: ≤ 20 cm
[1]; [3]
  duration of erythema and induration: 24 to 48 h
  erythema and induration: 2–4 cm
[1]; in vivo
  duration of mild local tenderness and inflammation at vaccination sites: 2 to 4 days
  vaccinations followed by low grade fever and malaise: 30%

## II^3NeuAc-GgOse3Cer [GM2]
[2]
  side effects: caused no additional side effects
